# Values joined by “and” are separate entries in the source; they are usually repeats but may differ in a detail not shown here. Identical values can stand only once. Marks after values point to notes of the source that are not given here.
# Assay: Distribution of Compound 4 and released Compound 1 in tissues (brain, pancreas, rectum, liver, lung; LC/MS)
# Description: (1) Forty-eight healthy Bar b/c mice, each weighing approximately 20 g, were taken and divided into 3 groups. Blank control group (6 mice), oral gavage administration group (Compound 4 dose: 50 mg/kg, 21 mice), and tail vein injection administration group (Compound 4 dose: 10 mg/kg, 21 mice) (2) For the oral gavage group, blood samples were collected at 5 min, 15 min, 30 min, 1 h, 3 h, 8 h, and 24 h after administration. For the intravenous injection group, blood samples were collected at 2 min, 5 min, 15 min, 30 min, 1 h, 3 h, 8 h, and 24 h after administration. Blood was collected from mice via eyeball removal and placed in anticoagulant tubes containing sodium heparin. The samples were immediately centrifuged at 5000 rpm at low temperature (4°C) for 10 min to obtain plasma samples. The samples were stored in a -80°C freezer for analysis. Three mice were used per time point. (3) The mouse was fixed on a foam board. The skin on the chest was lifted with forceps, and the thoracic skin and ribs were cut open with scissors to expose the heart and liver. The auricle was then cut open. A syringe needle was inserted into the left ventricle of the mouse, and normal saline was perfused for approximately 1 min (10-20 mL) until the mouse's limbs, liver, and tongue turned pale. Brain collection: The skin on the head was cut open to expose the white skull. The cartilage was cut, the skull cap was carefully pried open to expose the white brain, and the entire brain was dissected out. Tissues such as the pancreas, liver, lung, and rectum were also collected. The samples were stored in a -80°C freezer for analysis. (4) The contents of Compound 4 and Compound 1 in peripheral blood and tissues were detected by LC/MS. MS/MS information
# [1] = iv (10 mg/kg) Compound 4, 1h, Mean
# [2] = iv (10 mg/kg) Compound 4, 1h, individual mice, 10 mg/kg
# [3] = iv (10 mg/kg) Compound 4, 3h, Mean
# [4] = po (50 mg/kg) Compound 4, 5min, Mean
# [5] = po (50 mg/kg) Compound 4, 5min, individual mice, 50 mg/kg
# [6] = po (50 mg/kg) Compound 4, 15min, Mean
# [7] = po (50 mg/kg) Compound 4, 15min, individual mice, 50 mg/kg
# [8] = po (50 mg/kg) Compound 4, 30min, Mean
# [9] = po (50 mg/kg) Compound 4, 30min, individual mice, 50 mg/kg
# [10] = po (50 mg/kg) Compound 4, 1h, Mean
# [11] = po (50 mg/kg) Compound 4, 1h, individual mice, 50 mg/kg
# [12] = po (50 mg/kg) Compound 4, 3h, Mean
# [13] = po (50 mg/kg) Compound 4, 8h, Mean
smiles,measurement,setting,value
CN(C)CC1C(=O)OC2C1CCC(CC(F)(F)F)=CCCC1(C)OC21 (stereo not drawn) [Compound 4],Concentrations of Compound 4 in Pancreatic Tissue,[1],489 ng/g
same,Concentrations of Compound 4 in the Rectum,[1],451 ng/g
same,Concentrations of Compound 4 in Brain Tissue,[2],249 ng/g and 278 ng/g and 232 ng/g
same,Concentrations of Compound 4 in Liver,[2],221 ng/g and 245 ng/g and 387 ng/g
same,Concentrations of Compound 4 in Pancreatic Tissue,[2],439 ng/g and 359 ng/g and 669 ng/g
same,Concentrations of Compound 4 in the Rectum,[2],455 ng/g and 369 ng/g and 529 ng/g
same,Concentrations in Lung,[3],15.8 ng/g
same,Concentrations of Compound 4 in Brain Tissue,[3],5.01 ng/g
same,Concentrations of Compound 4 in Liver,[3],34.8 ng/g
same,Concentrations of Compound 4 in Pancreatic Tissue,[3],38.2 ng/g
same,Concentrations of Compound 4 in the Rectum,[3],53.9 ng/g
same,Concentrations of Compound 4 in Liver,"iv (10 mg/kg) Compound 4, 8h, individual mice",0.91* ng/g
same,Concentrations in Lung,[4],3843 ng/g
same,Concentrations of Compound 4 in Brain Tissue,[4],1730 ng/g
same,Concentrations of Compound 4 in Liver,[4],22633 ng/g
same,Concentrations of Compound 4 in Pancreatic Tissue,[4],7897 ng/g
same,Concentrations of Compound 4 in the Rectum,[4],3463 ng/g
same,Concentrations in Lung,[5],3110 ng/g and 4400 ng/g and 4020 ng/g
same,Concentrations of Compound 4 in Brain Tissue,[5],1230 ng/g and 2260 ng/g and 1700 ng/g
same,Concentrations of Compound 4 in Liver,[5],26900 ng/g and 16300 ng/g and 24700 ng/g
same,Concentrations of Compound 4 in Pancreatic Tissue,[5],8960 ng/g and 5740 ng/g and 8990 ng/g
same,Concentrations of Compound 4 in the Rectum,[5],2130 ng/g and 5040 ng/g and 3220 ng/g
same,Concentrations in Lung,[6],3193 ng/g
same,Concentrations of Compound 4 in Brain Tissue,[6],2047 ng/g
same,Concentrations of Compound 4 in Liver,[6],8383 ng/g
same,Concentrations of Compound 4 in Pancreatic Tissue,[6],5220 ng/g
same,Concentrations of Compound 4 in the Rectum,[6],3510 ng/g
same,Concentrations in Lung,[7],2720 ng/g and 3050 ng/g and 3810 ng/g
same,Concentrations of Compound 4 in Brain Tissue,[7],2450 ng/g and 2220 ng/g and 1470 ng/g
same,Concentrations of Compound 4 in Liver,[7],9670 ng/g and 8820 ng/g and 6660 ng/g
same,Concentrations of Compound 4 in Pancreatic Tissue,[7],4910 ng/g and 5730 ng/g and 5020 ng/g
same,Concentrations of Compound 4 in the Rectum,[7],5970 ng/g and 2390 ng/g and 2170 ng/g
same,Concentrations in Lung,[8],1416 ng/g
same,Concentrations of Compound 4 in Brain Tissue,[8],1088 ng/g
same,Concentrations of Compound 4 in Liver,[8],4913 ng/g
same,Concentrations of Compound 4 in Pancreatic Tissue,[8],4750 ng/g
same,Concentrations of Compound 4 in the Rectum,[8],4830 ng/g
same,Concentrations of Compound 4 in Brain Tissue,[9],1040 ng/g and 763 ng/g and 1460 ng/g
same,Concentrations of Compound 4 in Liver,[9],2750 ng/g and 5260 ng/g and 6730 ng/g
same,Concentrations of Compound 4 in the Rectum,[9],5940 ng/g and 2960 ng/g and 5590 ng/g
same,Concentrations in Lung,[10],724 ng/g
same,Concentrations of Compound 4 in Brain Tissue,[10],217 ng/g
same,Concentrations of Compound 4 in Liver,[10],762 ng/g
same,Concentrations of Compound 4 in Pancreatic Tissue,[10],793 ng/g
same,Concentrations of Compound 4 in the Rectum,[10],767 ng/g
same,Concentrations in Lung,[11],1150 ng/g and 557 ng/g and 466 ng/g
same,Concentrations of Compound 4 in Liver,[11],1220 ng/g and 412 ng/g and 655 ng/g
same,Concentrations of Compound 4 in Pancreatic Tissue,[11],1290 ng/g and 486 ng/g and 602 ng/g
same,Concentrations of Compound 4 in the Rectum,[11],1250 ng/g and 630 ng/g and 422 ng/g
same,Concentrations in Lung,[12],172 ng/g
same,Concentrations of Compound 4 in Brain Tissue,[12],42.4 ng/g
same,Concentrations of Compound 4 in Liver,[12],262 ng/g
same,Concentrations of Compound 4 in Pancreatic Tissue,[12],305 ng/g
same,Concentrations of Compound 4 in the Rectum,[12],938 ng/g
same,Concentrations of Compound 4 in Brain Tissue,[13],2.5 ng/g
same,Concentrations of Compound 4 in Liver,[13],3.7 ng/g
same,Concentrations of Compound 4 in Pancreatic Tissue,[13],4.13 ng/g
same,Concentrations of Compound 4 in the Rectum,[13],25.6 ng/g
same,Concentrations of Compound 4 in Liver,"po (50 mg/kg) Compound 4, 24h, Mean",13 ng/g
same,Concentrations of Compound 4 in Liver,"po (50 mg/kg) Compound 4, 24h, individual mice",13 ng/g
